Legend:
CDK2 (human) [1] = target: CDK2 (human) (UniProt P24941); test: Enzyme Assay
CDK2 (human) [2] = target: CDK2 (human) (UniProt P24941); test: Enzyme Assay; remark: listed apart in the source

CC[C@@H](Nc1nc(NCc2cccnc2)c2ncn(C(C)C)c2n1)C(C)(C)O
IC50 (CDK2 (human) [1]): 130 nM | IC50 (CDK2 (human) [2]): 370 nM
